Laboratory results: ChEMBL document CHEMBL1671772, “Predicting hERG activities of compounds from their 3D structures: development and evaluation of a global descriptors based QSAR model” (Eur J Med Chem, 2011)

The chains behind the UniProt entries cited, without tags or fusion partners. Where a name states a change or a piece, a line headed by the entry shows the natural chain unless it says otherwise.
UniProt Q12809: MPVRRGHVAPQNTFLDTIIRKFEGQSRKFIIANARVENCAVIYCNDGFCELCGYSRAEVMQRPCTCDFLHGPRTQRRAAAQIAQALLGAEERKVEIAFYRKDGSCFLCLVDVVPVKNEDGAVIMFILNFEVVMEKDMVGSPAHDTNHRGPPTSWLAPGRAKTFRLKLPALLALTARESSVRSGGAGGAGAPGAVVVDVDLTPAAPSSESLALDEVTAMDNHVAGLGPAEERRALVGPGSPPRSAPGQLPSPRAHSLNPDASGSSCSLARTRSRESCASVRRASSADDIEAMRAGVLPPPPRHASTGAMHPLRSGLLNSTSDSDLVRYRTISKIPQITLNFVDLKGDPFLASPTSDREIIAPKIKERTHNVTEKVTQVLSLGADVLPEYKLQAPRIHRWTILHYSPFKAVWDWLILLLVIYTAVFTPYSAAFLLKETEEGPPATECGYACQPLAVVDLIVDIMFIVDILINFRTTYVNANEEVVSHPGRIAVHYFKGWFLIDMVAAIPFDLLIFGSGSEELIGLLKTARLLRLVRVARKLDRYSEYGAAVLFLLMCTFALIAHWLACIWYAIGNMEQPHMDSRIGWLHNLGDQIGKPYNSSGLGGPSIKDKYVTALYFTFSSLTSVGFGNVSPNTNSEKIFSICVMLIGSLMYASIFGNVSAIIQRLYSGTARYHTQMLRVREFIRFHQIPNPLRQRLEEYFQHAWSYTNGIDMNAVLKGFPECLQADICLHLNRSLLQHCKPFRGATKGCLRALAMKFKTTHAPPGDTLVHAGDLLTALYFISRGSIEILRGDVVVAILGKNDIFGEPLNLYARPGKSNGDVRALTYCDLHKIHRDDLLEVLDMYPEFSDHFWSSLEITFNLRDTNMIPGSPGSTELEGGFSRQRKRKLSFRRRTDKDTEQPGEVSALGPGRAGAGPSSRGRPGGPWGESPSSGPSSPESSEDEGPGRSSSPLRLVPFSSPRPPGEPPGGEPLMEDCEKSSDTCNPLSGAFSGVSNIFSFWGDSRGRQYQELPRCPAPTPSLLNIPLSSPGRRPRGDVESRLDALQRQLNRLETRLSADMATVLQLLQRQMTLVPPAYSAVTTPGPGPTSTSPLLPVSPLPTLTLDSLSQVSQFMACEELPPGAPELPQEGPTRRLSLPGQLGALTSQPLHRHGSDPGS

Experiments:
[1] = target: T1, Voltage-gated inwardly rectifying potassium channel KCNH2 (Homo sapiens, UniProt Q12809)
[2] = target: T1, Voltage-gated inwardly rectifying potassium channel KCNH2; remark: listed apart in the source

| Compound | pIC50 [1] | IC50 [2] [nM] |
| --- | --- | --- |
| CCC(CC)c1cn(-c2ccc(F)cc2)c2ccc(Cl)cc12 | 2.83 | – |
| CN1CCCCC1CCN1c2ccccc2Sc2ccc([S+](C)[O-])cc21 (stereo not given) [MESORIDAZINE] | – | 316 |
| OC(c1cc(C(F)(F)F)nc2c(C(F)(F)F)cccc12)C1CCCCN1 (stereo not given) [MEFLOQUINE] | – | 5500 |
| CC(C)COCC(CN(Cc1ccccc1)c1ccccc1)N1CCCC1 (stereo not given) [BEPRIDIL] | – | 22.9 |
| c1ccc(-c2[nH]c3ccccc3c2C2CCCNC2)cc1 (stereo not given) | – | 4900 |
